The values that follow come from PubChem BioAssay AID449763 (Sanford-Burnham Center for Chemical Genomics, 2010).

The entries are a selection whose mix differs from that of the whole data set. The source made the active and inactive calls.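 How the source made its calls: active means at 10 µM dose, activation of 40% or more, normalized to positive control; inactive means the rest.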

A short description of the test: PERK-eIF2a-CHOP pathway stimulators – cell-based, CHO-CHOP luciferase reporter, luminescence, uHTS, primary screen (AID 449763).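 Further: 100% = tunicamycin at 10 µg/mL and 0% = DMSO alone.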 The following applies: UPR activation, at 10 µM, stronger effect = higher value, percent of tunicamycin response over DMSO baseline. In short, it runs like this: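 Evaluation: % reporter activation, DMSO baseline versus tunicamycin full activation; System: CHO-CHOP luciferase reporter cell line; Input: 500 cells/well; Incubation: 6 h compound treatment, 37 °C; Measured by: Steady-Glo luciferase luminescence; Dosing: one dose, 10 µM in 0.5% DMSO; Buffer or medium: F12 medium, 10% FBS; Benchmarks: positive tunicamycin 10 µg/mL, negative DMSO alone.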
Background: Reporter assays use an easily measured gene product as a stand-in for the process of interest.
As to `CCC(=O)N(c1ccccc1)C1(COC)CCN(CCn2nnn(CC)c2=O)CC1`, the activation was inactive: 0.35%.
The result for `CCC(=O)N(c1ccccc1)C1(COC)CCN(CCc2cccs2)CC1` reads inactive: -1.52%.
